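Grown in 96-well plates, cells were treated for 48 hours with each compound at five concentrations. Insufficient inhibition: endpoint recorded as highest concentration tested. TGI: total growth inhibition.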
What was measured:
Assay in all cases: NCI-60 cell line screen, 48 h
HT29 colon = system: HT29 colon
SR leukemia = system: SR leukemia
CCRF-CEM leukemia = system: CCRF-CEM leukemia
SW-620 colon = system: SW-620 colon
HOP-92 NSCLC = system: HOP-92 NSCLC
EKVX NSCLC = system: EKVX NSCLC
A498 renal = system: A498 renal
KM12 colon = system: KM12 colon
T-47D breast = system: T-47D breast
NCI-H460 lung = system: NCI-H460 lung
ACHN renal = system: ACHN renal
MDA-MB-435 = system: MDA-MB-435
HCT-116 colon = system: HCT-116 colon
MALME-3M melanoma = system: MALME-3M melanoma
SK-MEL-28 melanoma = system: SK-MEL-28 melanoma
SNB-75 CNS = system: SNB-75 CNS
NCI-H322M lung = system: NCI-H322M lung
MDA-MB-231 breast = system: MDA-MB-231 breast
SF-295 CNS = system: SF-295 CNS
DU-145 prostate = system: DU-145 prostate
U251 CNS = system: U251 CNS
SK-MEL-5 melanoma = system: SK-MEL-5 melanoma
HCT-15 colon = system: HCT-15 colon
NCI/ADR-RES ovarian = system: NCI/ADR-RES ovarian
UACC-257 melanoma = system: UACC-257 melanoma
M14 melanoma = system: M14 melanoma
MCF7 breast = system: MCF7 breast
SK-MEL-2 melanoma = system: SK-MEL-2 melanoma
UACC-62 melanoma = system: UACC-62 melanoma
CAKI-1 renal = system: CAKI-1 renal
UO-31 renal = system: UO-31 renal
TK-10 renal = system: TK-10 renal
SF-268 CNS = system: SF-268 CNS
OVCAR-4 ovarian = system: OVCAR-4 ovarian
HOP-62 NSCLC = system: HOP-62 NSCLC
MOLT-4 leukemia = system: MOLT-4 leukemia
LOX IMVI melanoma = system: LOX IMVI melanoma
BT-549 breast = system: BT-549 breast
OVCAR-8 ovarian = system: OVCAR-8 ovarian
SK-OV-3 ovarian = system: SK-OV-3 ovarian
SNB-19 CNS = system: SNB-19 CNS
OVCAR-3 ovarian = system: OVCAR-3 ovarian
NCI-H23 lung = system: NCI-H23 lung
RPMI-8226 leukemia = system: RPMI-8226 leukemia
K-562 leukemia = system: K-562 leukemia
IGROV1 ovarian = system: IGROV1 ovarian
PC-3 prostate = system: PC-3 prostate
MDA-N = system: MDA-N
786-0 renal = system: 786-0 renal
COLO 205 colon = system: COLO 205 colon
A549 NSCLC = system: A549 NSCLC
SN12C renal = system: SN12C renal
RXF 393 renal = system: RXF 393 renal
OVCAR-5 ovarian = system: OVCAR-5 ovarian

For CN(C(=O)COc1ccc(Cl)c(Cl)c1)C1CCCC[C@@H]1N1CCCC1 (some centres undefined), the TGI (HT29 colon) was > 100 µM, the TGI (SR leukemia) was > 100 µM and the TGI (CCRF-CEM leukemia) was > 100 µM. For the same compound, the TGI (SW-620 colon) was > 100 µM, the TGI (HOP-92 NSCLC) was > 100 µM and the TGI (EKVX NSCLC) was > 100 µM. For the same compound, the TGI (A498 renal) was > 100 µM, the TGI (KM12 colon) was > 100 µM and the TGI (T-47D breast) was > 100 µM. The TGI (NCI-H460 lung) was > 100 µM, the TGI (ACHN renal) was > 100 µM and the TGI (MDA-MB-435) was > 100 µM. For the same compound, the TGI (HCT-116 colon) was > 100 µM, the TGI (MALME-3M melanoma) was > 100 µM and the TGI (SK-MEL-28 melanoma) was > 100 µM. The TGI (SNB-75 CNS) was > 100 µM, the TGI (NCI-H322M lung) was > 100 µM and the TGI (MDA-MB-231 breast) was > 100 µM. The TGI (SF-295 CNS) was > 100 µM, the TGI (DU-145 prostate) was > 100 µM and the TGI (U251 CNS) was > 100 µM. The TGI (SK-MEL-5 melanoma) was 29.2 µM, the TGI (HCT-15 colon) was > 100 µM and the TGI (NCI/ADR-RES ovarian) was > 100 µM. For the same compound, the TGI (UACC-257 melanoma) was > 100 µM, the TGI (M14 melanoma) was 36.8 µM and the TGI (MCF7 breast) was > 100 µM. For the same compound, the TGI (SK-MEL-2 melanoma) was > 100 µM, the TGI (UACC-62 melanoma) was > 100 µM and the TGI (CAKI-1 renal) was > 100 µM. The TGI (UO-31 renal) was > 100 µM, the TGI (TK-10 renal) was > 100 µM and the TGI (SF-268 CNS) was > 100 µM. For the same compound, the TGI (OVCAR-4 ovarian) was > 100 µM, the TGI (HOP-62 NSCLC) was > 100 µM and the TGI (MOLT-4 leukemia) was > 100 µM. For the same compound, the TGI (LOX IMVI melanoma) was > 100 µM, the TGI (BT-549 breast) was > 100 µM and the TGI (OVCAR-8 ovarian) was > 100 µM. For the same compound, the TGI (SK-OV-3 ovarian) was > 100 µM, the TGI (SNB-19 CNS) was > 100 µM and the TGI (OVCAR-3 ovarian) was > 100 µM. The TGI (NCI-H23 lung) was > 100 µM, the TGI (RPMI-8226 leukemia) was > 100 µM and the TGI (K-562 leukemia) was > 100 µM. The TGI (IGROV1 ovarian) was > 100 µM, the TGI (PC-3 prostate) was > 100 µM and the TGI (MDA-N) was > 100 µM. For the same compound, the TGI (786-0 renal) was > 100 µM, the TGI (COLO 205 colon) was > 100 µM and the TGI (A549 NSCLC) was > 100 µM. The TGI (SN12C renal) was > 100 µM, the TGI (RXF 393 renal) was > 100 µM and the TGI (OVCAR-5 ovarian) was > 100 µM.

Source: PubChem BioAssay (NCI)
